These results are taken from patent publication US20240360179A1, “STAPLED PEPTIDES AND METHODS THEREOF” (FOG PHARMACEUTICALS, INC., priority 2021, published 2024).

The chains behind the UniProt entries cited, without tags or fusion partners.
UniProt P35222, whole entry: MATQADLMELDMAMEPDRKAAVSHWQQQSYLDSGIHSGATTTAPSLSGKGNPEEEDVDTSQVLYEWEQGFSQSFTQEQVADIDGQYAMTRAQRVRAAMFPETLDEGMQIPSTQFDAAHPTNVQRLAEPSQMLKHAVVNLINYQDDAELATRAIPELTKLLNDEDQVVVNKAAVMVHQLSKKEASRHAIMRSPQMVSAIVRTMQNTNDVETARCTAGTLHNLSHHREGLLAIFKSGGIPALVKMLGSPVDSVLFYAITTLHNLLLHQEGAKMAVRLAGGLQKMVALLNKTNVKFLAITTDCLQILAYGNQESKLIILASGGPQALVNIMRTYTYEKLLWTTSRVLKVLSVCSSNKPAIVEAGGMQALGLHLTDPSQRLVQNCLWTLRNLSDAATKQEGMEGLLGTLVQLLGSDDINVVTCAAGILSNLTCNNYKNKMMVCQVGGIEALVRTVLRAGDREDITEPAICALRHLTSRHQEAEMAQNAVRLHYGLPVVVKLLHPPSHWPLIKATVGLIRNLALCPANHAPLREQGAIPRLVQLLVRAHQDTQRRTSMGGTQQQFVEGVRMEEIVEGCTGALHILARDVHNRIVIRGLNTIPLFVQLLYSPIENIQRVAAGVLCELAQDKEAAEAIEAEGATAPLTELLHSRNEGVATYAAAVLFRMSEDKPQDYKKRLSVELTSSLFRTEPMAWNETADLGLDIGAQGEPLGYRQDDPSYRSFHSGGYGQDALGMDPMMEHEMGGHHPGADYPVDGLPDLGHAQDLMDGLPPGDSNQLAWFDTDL

The term IC50 denotes the concentration at which inhibition is half-maximal. Low values mean higher potency, high ones lower potency.

Each structure is given as a SMILES string.

The target in test [1] is T1, full-length B-Catenin (Uniprot ID P35222) (Homo sapiens, UniProt P35222).
T1 construct: 10 nM full-length B-Catenin (Uniprot ID P35222)
Kind of test: biochemical. The following applies: beta-Catenin FP IC50 (nM), competition fluorescence polarization. It counts as binding. On the technique in general: Polarisation of emitted light reports the rotation of a fluorescent probe.

In test [2] the target is beta-catenin/TCF4 interaction (Homo sapiens, UniProt P35222). The test can be described thus: cell-based. The following applies: NanoBRET Abs IC50 (uM). Also noted: host or cells: HEK293.

As for `CC[C@H](C)[C@@H]1NC(=O)[C@H](CC(=O)O)NC(=O)[C@]2(CC=CCCCC3(CCCC=CCCCOC(=O)N4CC[C@@]5(C4)NC(=O)[C@H](CCCCNC(=O)CC[C@@H](C(=O)N[C@@H](C)C(N)=O)NC(=O)[C@H](Cc4csc6ccccc46)NC(=O)[C@H](Cc4ccsc4)NC5=O)NC(=O)[C@H](Cc4ccccc4)NC(=O)[C@H](C)NC(=O)C(C)(C)NC(=O)[C@H](Cc4cccc(C(=O)O)c4)NC(=O)[C@H](CC(=O)O)NC3=O)NC1=O)CCCN2C(C)=O` (single isomer, unassigned) [I-247, Ac-PL3-Asp-Ile-B5-Asp-3COOHF-Aib-Ala-Phe-Lys*3-PyrS2-3Thi-BztA-GlnR*3-Ala-NH2], the IC50 in test [1] was < 50 nM; in test [2], 1.5 to 3 µM.
Taken in the same sequence, the figures for `CC(=O)N1CCC[C@]12CC=CCCCC1(CCCC=CCCCOC(=O)N3CC[C@@]4(C3)NC(=O)[C@H](CCCCNC(=O)CC[C@@H](C(=O)N[C@@H](C)C(N)=O)NC(=O)[C@H](Cc3csc5ccccc35)NC(=O)[C@H](Cc3ccsc3)NC4=O)NC(=O)[C@H](Cc3ccccc3)NC(=O)[C@H](C)NC(=O)C(C)(C)NC(=O)[C@H](Cc3cccc(C(=O)O)c3)NC(=O)[C@H](CC(=O)O)NC1=O)NC(=O)[C@H](C1CCCCC1)NC(=O)[C@H](CC(=O)O)NC2=O` (single isomer, unassigned) [I-253, Ac-PL3-Asp-Chg-B5-Asp-3COOHF-Aib-Ala-Phe-Lys*3-PyrS2-3Thi-BztA-GlnR*3-Ala-NH2] were < 50 nM and < 1.5 µM.
For `CC(=O)N1CCC[C@]12CC=CCCCC1(CCCC=CCCCOC(=O)N3CC[C@@]4(C3)NC(=O)[C@H](CCCCNC(=O)CC[C@@H](C(=O)N[C@@H](C)C(N)=O)NC(=O)[C@H](Cc3csc5ccccc35)NC(=O)[C@H](C)NC4=O)NC(=O)[C@H](Cc3ccccc3)NC(=O)[C@H](C)NC(=O)C(C)(C)NC(=O)[C@H](Cc3cccc(C(=O)O)c3)NC(=O)[C@H](CC(=O)O)NC1=O)NC(=O)[C@H](CC(C)(C)C)NC(=O)[C@H](CC(=O)O)NC2=O` (single isomer, unassigned) [I-266, Ac-PL3-Asp-Npg-B5-Asp-3COOHF-Aib-Ala-Phe-Lys*3-PyrS2-Ala-BztA-GlnR*3-Ala-NH2], in that order: 200 to 750 nM and > 10 µM.
Taken in the same sequence, the figures for `CC[C@@H]1NC(=O)[C@]23CCN(C2)C(=O)OCCCC=CCCCC2(CCCC=CC[C@]4(CCCN4C(C)=O)C(=O)N[C@@H](CC(=O)O)C(=O)N[C@@H](CC(C)(C)C)C(=O)N2)C(=O)N[C@@H](CC(=O)O)C(=O)N[C@@H](Cc2cccc(C(=O)O)c2)C(=O)NC(C)(C)C(=O)N[C@@H](C)C(=O)N[C@@H](Cc2ccccc2)C(=O)N[C@@H](CCCCNC(=O)CC[C@@H](C(=O)N[C@@H](C)C(N)=O)NC(=O)[C@H](Cc2csc4ccccc24)NC1=O)C(=O)N3` (single isomer, unassigned) [I-268, Ac-PL3-Asp-Npg-B5-Asp-3COOHF-Aib-Ala-Phe-Lys*3-PyrS2-Abu-BztA-GlnR*3-Ala-NH2] were 50 to 200 nM and > 10 µM.
`CCCC[C@@H]1NC(=O)[C@]23CCN(C2)C(=O)OCCCC=CCCCC2(CCCC=CC[C@]4(CCCN4C(C)=O)C(=O)N[C@@H](CC(=O)O)C(=O)N[C@@H](CC(C)(C)C)C(=O)N2)C(=O)N[C@@H](CC(=O)O)C(=O)N[C@@H](Cc2cccc(C(=O)O)c2)C(=O)NC(C)(C)C(=O)N[C@@H](C)C(=O)N[C@@H](Cc2ccccc2)C(=O)N[C@@H](CCCCNC(=O)CC[C@@H](C(=O)N[C@@H](C)C(N)=O)NC(=O)[C@H](Cc2csc4ccccc24)NC1=O)C(=O)N3` (single isomer, unassigned) [I-271, Ac-PL3-Asp-Npg-B5-Asp-3COOHF-Aib-Ala-Phe-Lys*3-PyrS2-nLeu-BztA-GlnR*3-Ala-NH2]: the IC50 in test [1] was < 50 nM; in test [2], 3 to 10 µM.
Taken in the same sequence, the figures for `CC(=O)N1CCC[C@]12CC=CCCCC1(CCCC=CCCCOC(=O)N3CC[C@@]4(C3)NC(=O)[C@H](CCCCNC(=O)CC[C@@H](C(=O)N[C@@H](C)C(N)=O)NC(=O)[C@H](Cc3csc5ccccc35)NC(=O)[C@H](CC(C)C)NC4=O)NC(=O)[C@H](Cc3ccccc3)NC(=O)[C@H](C)NC(=O)C(C)(C)NC(=O)[C@H](Cc3cccc(C(=O)O)c3)NC(=O)[C@H](CC(=O)O)NC1=O)NC(=O)[C@H](CC(C)(C)C)NC(=O)[C@H](CC(=O)O)NC2=O` (single isomer, unassigned) [I-273, Ac-PL3-Asp-Npg-B5-Asp-3COOHF-Aib-Ala-Phe-Lys*3-PyrS2-Leu-BztA-GlnR*3-Ala-NH2] were 50 to 200 nM and > 10 µM.
Taken in the same sequence, the figures for `CC(=O)N1CCC[C@]12CC=CCCCC1(CCCC=CCCCOC(=O)N3CC[C@@]4(C3)NC(=O)[C@H](CCCCNC(=O)CC[C@@H](C(=O)N[C@@H](C)C(N)=O)NC(=O)[C@H](Cc3csc5ccccc35)NC(=O)[C@H](CCC(C)C)NC4=O)NC(=O)[C@H](Cc3ccccc3)NC(=O)[C@H](C)NC(=O)C(C)(C)NC(=O)[C@H](Cc3cccc(C(=O)O)c3)NC(=O)[C@H](CC(=O)O)NC1=O)NC(=O)[C@H](CC(C)(C)C)NC(=O)[C@H](CC(=O)O)NC2=O` (single isomer, unassigned) [I-275, Ac-PL3-Asp-Npg-B5-Asp-3COOHF-Aib-Ala-Phe-Lys*3-PyrS2-hLeu-BztA-GlnR*3-Ala-NH2] were < 50 nM and 3 to 10 µM.
Turning to `CC(=O)N1CCC[C@]12CC=CCCCC1(CCCC=CCCCOC(=O)N3CC[C@@]4(C3)NC(=O)[C@H](CCCCNC(=O)CC[C@@H](C(=O)N[C@@H](C)C(N)=O)NC(=O)[C@H](Cc3csc5ccccc35)NC(=O)[C@H](CC(C)(C)C)NC4=O)NC(=O)[C@H](Cc3ccccc3)NC(=O)[C@H](C)NC(=O)C(C)(C)NC(=O)[C@H](Cc3cccc(C(=O)O)c3)NC(=O)[C@H](CC(=O)O)NC1=O)NC(=O)[C@H](CC(C)(C)C)NC(=O)[C@H](CC(=O)O)NC2=O` (single isomer, unassigned) [I-277, Ac-PL3-Asp-Npg-B5-Asp-3COOHF-Aib-Ala-Phe-Lys*3-PyrS2-Npg-BztA-GlnR*3-Ala-NH2], the IC50 in test [1] is 50 to 200 nM; in test [2], > 10 µM.
Take `CC(=O)N1CCC[C@]12CC=CCCCC1(CCCC=CCCCOC(=O)N3CC[C@@]4(C3)NC(=O)[C@H](CCCCNC(=O)CC[C@@H](C(=O)N[C@@H](C)C(N)=O)NC(=O)[C@H](Cc3csc5ccccc35)NC(=O)[C@H](Cc3ccccc3)NC4=O)NC(=O)[C@H](Cc3ccccc3)NC(=O)[C@H](C)NC(=O)C(C)(C)NC(=O)[C@H](Cc3cccc(C(=O)O)c3)NC(=O)[C@H](CC(=O)O)NC1=O)NC(=O)[C@H](CC(C)(C)C)NC(=O)[C@H](CC(=O)O)NC2=O` (single isomer, unassigned) [I-279, Ac-PL3-Asp-Npg-B5-Asp-3COOHF-Aib-Ala-Phe-Lys*3-PyrS2-Phe-BztA-GlnR*3-Ala-NH2]: the IC50 in test [1] is < 50 nM; in test [2], 3 to 10 µM.
Taken in the same sequence, the figures for `CC(=O)N1CCC[C@]12CC=CCCCC1(CCCC=CCCCOC(=O)N3CC[C@@]4(C3)NC(=O)[C@H](CCCCNC(=O)CC[C@@H](C(=O)N[C@@H](C)C(N)=O)NC(=O)[C@H](Cc3csc5ccccc35)NC(=O)[C@H](CC3CC3)NC4=O)NC(=O)[C@H](Cc3ccccc3)NC(=O)[C@H](C)NC(=O)C(C)(C)NC(=O)[C@H](Cc3cccc(C(=O)O)c3)NC(=O)[C@H](CC(=O)O)NC1=O)NC(=O)[C@H](CC(C)(C)C)NC(=O)[C@H](CC(=O)O)NC2=O` (single isomer, unassigned) [I-281, Ac-PL3-Asp-Npg-B5-Asp-3COOHF-Aib-Ala-Phe-Lys*3-PyrS2-Cpa-BztA-GlnR*3-Ala-NH2] were < 50 nM and 3 to 10 µM.
In the case of `CC(=O)N1CCC[C@]12CC=CCCCC1(CCCC=CCCCOC(=O)N3CC[C@@]4(C3)NC(=O)[C@H](CCCCNC(=O)CC[C@@H](C(=O)N[C@@H](C)C(N)=O)NC(=O)[C@H](Cc3csc5ccccc35)NC(=O)[C@H](Cc3ccsc3)NC4=O)NC(=O)[C@H](Cc3ccccc3)NC(=O)[C@H](C)NC(=O)C(C)(C)NC(=O)[C@H](Cc3cccc(C(=O)O)c3)NC(=O)[C@H](CC(=O)O)NC1=O)NC(=O)[C@H](C(c1ccccc1)c1ccccc1)NC(=O)[C@H](CC(=O)O)NC2=O` (single isomer, unassigned) [I-310, Ac-PL3-Asp-DipA-B5-Asp-3COOHF-Aib-Ala-Phe-Lys*3-PyrS2-3Thi-BztA-GlnR*3-Ala-NH2], the IC50 in test [1] was < 50 nM; in test [2] (absolute IC50) it was 1.5 to 3 µM.
For `CC(=O)N1CCC[C@]12CC=CCCCC1(CCCC=CCCCOC(=O)N3CC[C@@]4(C3)NC(=O)[C@H](CCCCn3cc(nn3)C[C@@H](C(=O)N[C@@H](C)C(N)=O)NC(=O)[C@H](Cc3csc5ccccc35)NC(=O)[C@H](Cc3ccsc3)NC4=O)NC(=O)[C@H](Cc3ccccc3)NC(=O)[C@H](C)NC(=O)C(C)(C)NC(=O)[C@H](Cc3cccc(C(=O)O)c3)NC(=O)[C@H](CC(=O)O)NC1=O)NC(=O)[C@H](CC(C)(C)C)NC(=O)[C@H](CC(=O)O)NC2=O` (single isomer, unassigned) [I-335, Ac-PL3-Asp-Npg-B5-Asp-3COOHF-Aib-Ala-Phe-TriAzLys*3-PyrS2-3Thi-BztA-sAla*3-Ala-NH2], in that order: < 50 nM and < 1.5 µM.
As for `CC(=O)N1CCC[C@]12CC=CCCCC1(CCCC=CCCCOC(=O)N3CC[C@@]4(C3)NC(=O)[C@H](CCCCNC(=O)CC[C@@H](C(=O)N[C@@H](C)C(N)=O)NC(=O)[C@H](Cc3csc5ccccc35)NC(=O)[C@H](Cc3ccsc3)NC4=O)NC(=O)[C@H](Cc3ccccc3)NC(=O)[C@H](C)NC(=O)C3(CCCC3)NC(=O)[C@H](Cc3cccc(C(=O)O)c3)NC(=O)[C@H](CC(=O)O)NC1=O)NC(=O)[C@H](CC(C)(C)C)NC(=O)[C@H](CC(=O)O)NC2=O` (single isomer, unassigned) [I-382, Ac-PL3-Asp-Npg-B5-Asp-3COOHF-CyLeu-Ala-Phe-Lys*3-PyrS2-3Thi-BztA-GlnR*3-Ala-NH2], the results for the IC50 in test [1] and in test [2] (absolute IC50) were < 50 nM and 1.5 to 3 µM, respectively.
